The assay addresses protein kinase C gamma (Homo sapiens, UniProt P05129). Nature of the assay: PKC Enzyme assay, gamma isozyme. The format is biochemical. The note with it: 30 μM ATP, 30° C., 10 minutes. How it is done: PKC enzymes=alpha, beta I, beta II, gamma, delta, epsilon, eta and zeta.
Assay components in a total volume of 250 μL are the following:
Vesicles consisting of 120 μg/mL phosphatidylserine (Avanti Polar Lipids) and sufficient diacylglycerol (Avanti Polar Lipids) to activate the enzyme to maximum activity in 20 mM HEPES buffer (Sigma, St. Louis, Mo.), pH 7.5, 940 μM calcium chloride (Sigma, St. Louis, Mo.) for assaying the alpha, beta I, beta II and gamma enzyme only, 1 mM EGTA for all the enzymes, 10 mM magnesium chloride (Sigma, St. Louis, Mo.) and 30 μM (gamma-32P) ATP (DuPont). For all the enzymes either histone type HL (Worthington) or myelin basic protein is used as substrate. The assay is started by addition of protein kinase C enzyme incubated at 30° C. for 10 minutes and stopped by adding 0.5 mL of cold trichloroacetic acid (Amresco) followed by 100 μL of 1 mg/mL bovine serum albumin (Sigma, St. Louis, Mo.). The precipitate is collected by vacuum filtration on glass fiber filters employing a TOMTEC™ filtration system and quantified by counting in a beta scintillation counter.

The term IC50 denotes the point on the concentration scale where inhibition reaches its midpoint. Read a high IC50 as weaker potency.

The compound `Cn1cc(C2=C(c3cn(C4CCNCC4)c4ccccc34)C(=O)NC2=O)c2ccccc21` [Example 52] registered an IC50 of 2000 nM.

Values taken from patent US5668152A, “Protein kinase C inhibitors” (priority 1995, dated 1997).
